{"source": "paper PMC10703426", "about": "“New characterization of dihydroergotamine receptor pharmacology in the context of migraine: utilization of a β-arrestin recruitment assay” (Frontiers in Neurology, 2023)", "origin": "cited, not measured here", "test_system": "5-HT2A", "settings": "IV DHE (53 ng/mL); cited from earlier work", "note": "Where a name gives a salt, the structure may show the parent alone.", "data": [{"smiles": "CN1C[C@H](C(=O)N[C@]2(C)O[C@@]3(O)[C@@H]4CCCN4C(=O)[C@H](Cc4ccccc4)N3C2=O)C[C@@H]2c3cccc4[nH]cc(c34)C[C@H]21", "note": "[DHE, Dihydroergotamine mesylate]", "values": [{"measurement": "receptor radioligand binding (active binding)", "value": "X (An X denotes active binding)"}]}]}
